# Data reported in BindingDB's records for doi:10.1002/(SICI)1098-2396(200002)35:2<144::AID-SYN7>3.0.CO;2-K (Albany Medical College, 2000).
# Protein sequences, listed by entry. Tags and fused reporters are not part of them.
# UniProt P28223, whole entry: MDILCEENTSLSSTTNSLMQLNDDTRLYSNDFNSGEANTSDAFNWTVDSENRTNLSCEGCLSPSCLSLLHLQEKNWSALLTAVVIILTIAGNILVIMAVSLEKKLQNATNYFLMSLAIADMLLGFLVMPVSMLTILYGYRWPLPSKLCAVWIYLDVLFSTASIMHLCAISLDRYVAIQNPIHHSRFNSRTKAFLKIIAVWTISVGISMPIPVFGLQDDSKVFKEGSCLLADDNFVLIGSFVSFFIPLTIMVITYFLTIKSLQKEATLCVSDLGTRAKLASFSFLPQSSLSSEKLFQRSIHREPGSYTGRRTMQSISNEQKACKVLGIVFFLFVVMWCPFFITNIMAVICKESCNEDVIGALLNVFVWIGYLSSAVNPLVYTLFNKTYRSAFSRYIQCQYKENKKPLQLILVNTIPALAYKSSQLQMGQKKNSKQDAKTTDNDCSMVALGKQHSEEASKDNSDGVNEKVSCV
# Several values for one entry are separate records, joined by “and”; a condition that tells them apart may be missing. Equal values may be shown once.
# Molecular target: 5-hydroxytryptamine receptor 2A (Homo sapiens, UniProt P28223)
smiles,measurement,value
Clc1cccc(N2CCNCC2)c1 [mCPP],Ki,74 nM and 212 nM
